Molecular target: T1, rat NAAA (r-NAAA) (Rattus norvegicus, UniProt Q5KTC7)
T1 sequence (Q5KTC7 131-362 limits assumed): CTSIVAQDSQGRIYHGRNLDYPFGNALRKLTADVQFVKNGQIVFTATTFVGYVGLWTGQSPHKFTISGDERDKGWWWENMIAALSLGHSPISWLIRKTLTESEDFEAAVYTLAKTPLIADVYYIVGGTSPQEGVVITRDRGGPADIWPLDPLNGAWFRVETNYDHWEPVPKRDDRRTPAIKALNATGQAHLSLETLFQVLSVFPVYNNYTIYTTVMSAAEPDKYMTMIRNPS
T1 sequence (Q5KTC7 34-130 limits assumed): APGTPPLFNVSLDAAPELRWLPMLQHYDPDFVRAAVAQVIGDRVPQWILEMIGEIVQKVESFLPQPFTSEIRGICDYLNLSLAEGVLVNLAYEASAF
Experiment: Rat NAAA activity inhibition
Format: biochemical

IC50	Compound
~3.1 µM	O=C(N[C@@H]1CNC1=O)OCCCCC1CCCCC1 [Compound 7, 4-Cyclohexylbutyl-N-[(R)-2-oxoazetidin-3-yl]carbamate]
0.063 ± 0.015 µM	O=C(N[C@H]1CNC1=O)OCCCCC1CCCCC1 [Compound 6, 4-Cyclohexylbutyl-N-[(S)-2-oxoazetidin-3-yl]carbamate]

— paper PMC4546552 (ACS chemical biology, 2015)
